## Ab-95 light chain CDR variants: yeast mating affinities

The measurements come from Engelhart et al. 2022 (doi:10.1038/s41597-022-01779-4) through the FLAb antibody collection.

Binding partner: SARS-CoV-2 spike HR2 peptide, sequence PDVDLGDISGINAS.

Ab-95 is the parent antibody, in scFv form: VH, then a (GGGGS)3 linker, then VL. The heavy chain is unchanged in all variants.
VH: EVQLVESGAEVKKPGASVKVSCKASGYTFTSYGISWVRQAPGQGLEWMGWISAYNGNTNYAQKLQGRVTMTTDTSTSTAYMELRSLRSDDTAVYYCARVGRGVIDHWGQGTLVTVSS
VL: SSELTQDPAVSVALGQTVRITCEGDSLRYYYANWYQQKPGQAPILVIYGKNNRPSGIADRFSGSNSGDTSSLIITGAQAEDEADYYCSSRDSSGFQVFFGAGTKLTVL

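The parent was found by panning a naive human phage display library on the peptide. The library (AAYL52) carries one to three amino acid substitutions per variant, with no insertions or deletions. The scFvs were displayed on barcoded MATa yeast, the peptide on MATalpha yeast. After mating in shaken culture at 30 °C for 16 h, diploids were selected and their barcode pairs sequenced. Read counts were normalised to the haploid input and turned into Kd by a linear fit to BCL2-family pairs of known affinity, for each replicate. Each pool was mated in three replicate cultures.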

Each variant is given by its three light chain CDRs, as the data file delimits them; those of the parent are EGDSLRYYYAN, GKNNRPS, SSRDSSGFQVF. This list gathers variants with a substitution at R53 (VL, numbered from residue 1). Affinities are written as log10 Kd with Kd in nM; a lower number is a better binder. Averages over replicates are reported, and they cover detected replicates only. "ND" marks a missing value. The strain was present, yet no cells mated with the target were sequenced in that replicate, which points to weak or no binding. Parent in this assay: reference entry 2.31, copy in this library 2.25.

With EGDSLRYYYAN / GKNNDHS / SRRDSSGFQVF the result was 4.34, 3.87, 2.44 (mean 3.55). Variant EGDSLWYYYAN / GKNNSPS / SWRDSSGFQVF gave ND, 3.61, 3.10 (mean 3.35). With EGDSLRYYYAN / YKWNNPS / SSRDSSGFQVF the result was ND, ND, ND. For EGDSLRYYYAN / GWNNVPS / SSRDSVGFQVF, the assay gave ND, ND, ND. Variant EGDSLRYYYAN / GKNNNPS / SSRDSSGFQVF showed 2.66, 2.20, 1.46 (mean 2.11). For EGDSLRYYYAN / GKNNAPS / SSRESSGFQVL, the assay gave 3.42, 4.78, 4.28 (mean 4.16). With EGDSLRYYYAN / GKNNKPS / SSRDSSGFQVF the result was 2.47, 2.57, 2.05 (mean 2.36). Variant EGDSLRYTYAN / GKNHGPS / SSRDSSGFQVF gave 2.90, 3.12, 2.60 (mean 2.87). For EGDSLRYYYAN / GCNNTPS / SSRDMSGFQVF, the assay gave 4.38, ND, ND.

With ESDSLRYYYAN / GKNNEPS / SSRDSSGFQVP the result was ND, ND, ND. With EGDSLLYYYAN / GKNNYPS / GSRDSSGFQVF the result was 3.80, 3.78, 2.18 (mean 3.25). With EGDSLRYYYAN / GKNNLPT / SSRDSSGFQWF the result was 3.74, 5.86, ND (mean 4.80). Variant EGDSLRYYYAN / GKNNGPS / SSVDSVGFQVF gave 5.48, 3.68, 3.35 (mean 4.17). Variant EGDCLRYYYDN / GKNNGPS / SSRDSSGFQVF gave 4.55, ND, 2.32 (mean 3.44). Variant EGVSLRYCYAN / GKNNKPS / SSRDSSGFQVF gave 2.82, 2.85, 2.35 (mean 2.67). Variant EGNSLRYYYAN / GKNNCPS / SSLDSSGFQVF showed ND, ND, ND. For EGDSLRYYYAN / GKNQIPS / SSRDSSRFQVF, the assay gave 2.68, 2.61, 2.72 (mean 2.67). Variant EGDSLRYYYAN / GWNNAPS / SSRDSSGFPVF gave 4.00, 3.64, ND (mean 3.82).

With EGDSLRYYYAN / GKNNCPS / SSRDSSGFQVF the result was 2.90, 4.37, ND (mean 3.64). Variant EGDSCEYYYAN / GKNNNPS / SSRDSSGFQVF showed ND, ND, ND. Variant EGDSLRYYYAN / GCNNIPS / SSRDSSGFQWF showed ND, ND, ND. For EGDSLRYYYAN / GKNNHPS / SSRDSNGFPVF, the assay gave 2.75, 4.47, ND (mean 3.61). Variant EGDSLRYYYHN / GKNNKPS / SSRDSSGFQVF showed 4.40, 4.63, 3.37 (mean 4.13). With EGDSLRYYYAN / GKNNMPS / SSRDSSGFQGF the result was ND, ND, ND. For EGDSSRYYYAN / GKKNLPS / SSRDSSGFQVF, the assay gave ND, ND, ND. With EGDSLRYYYAN / GKNNEPS / SSVDSSGFQVF the result was 4.14, 4.24, 4.40 (mean 4.26). Variant DGDSLRYYYAN / GKNMCPS / SSRDSSGFQVF gave ND, 4.68, 4.33 (mean 4.50).

With EGDSLRYYYAN / GKNNMPS / SSRDSSGWQVF the result was ND, ND, ND. Variant EGDSLRYYYTN / GKNNPPS / SSRDSLGFQVF gave ND, ND, ND. Variant EGDSQRYYYAN / GKNNQPS / SSRDSSGFQVF gave 3.65, ND, ND. With EGDSGRYYYAN / GKNNPPS / SSRDSSGFQWF the result was ND, ND, ND. Variant EGDSLRYYYAN / GKNNTPS / SSRDWSQFQVF showed 3.69, ND, 4.35 (mean 4.02). Variant EGDSLRYYYAN / DKNNPVS / SSRDSSGFQVF showed 4.62, 4.08, ND (mean 4.35).

The 2 strongest on average among those seen in every replicate, once more:

EGDSLRYYYAN / GKNNNPS / SSRDSSGFQVF: 2.66, 2.20, 1.46 (mean 2.11).
EGDSLRYYYAN / GKNNKPS / SSRDSSGFQVF: 2.47, 2.57, 2.05 (mean 2.36).

Empty control strains, which show no peptide, gave a signal in 28% of pairings with library AAYL52; the median was 3.91 and 95% of these signals were weaker than 2.90. No background was subtracted.